Key:
[1] = target: Beta1 (Homo sapiens, UniProt P08588); assay: cell-based
[2] = target: CCKa (Homo sapiens, UniProt P32238); assay: cell-based

Protein sequences, listed by entry. Tags and fused reporters are not part of them.
UniProt P08588, whole entry: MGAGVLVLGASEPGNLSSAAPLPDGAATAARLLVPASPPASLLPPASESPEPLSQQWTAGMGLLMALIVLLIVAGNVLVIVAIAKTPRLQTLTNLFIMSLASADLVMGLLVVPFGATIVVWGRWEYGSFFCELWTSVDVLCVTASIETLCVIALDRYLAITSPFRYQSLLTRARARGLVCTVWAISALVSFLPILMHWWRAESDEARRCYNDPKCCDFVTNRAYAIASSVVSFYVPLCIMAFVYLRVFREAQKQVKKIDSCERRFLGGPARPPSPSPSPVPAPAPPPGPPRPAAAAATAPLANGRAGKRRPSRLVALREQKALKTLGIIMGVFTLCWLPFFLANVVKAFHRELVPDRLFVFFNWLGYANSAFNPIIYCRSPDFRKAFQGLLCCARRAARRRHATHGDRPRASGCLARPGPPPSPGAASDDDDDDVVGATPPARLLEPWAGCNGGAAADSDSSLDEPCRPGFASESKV
UniProt P32238, whole entry: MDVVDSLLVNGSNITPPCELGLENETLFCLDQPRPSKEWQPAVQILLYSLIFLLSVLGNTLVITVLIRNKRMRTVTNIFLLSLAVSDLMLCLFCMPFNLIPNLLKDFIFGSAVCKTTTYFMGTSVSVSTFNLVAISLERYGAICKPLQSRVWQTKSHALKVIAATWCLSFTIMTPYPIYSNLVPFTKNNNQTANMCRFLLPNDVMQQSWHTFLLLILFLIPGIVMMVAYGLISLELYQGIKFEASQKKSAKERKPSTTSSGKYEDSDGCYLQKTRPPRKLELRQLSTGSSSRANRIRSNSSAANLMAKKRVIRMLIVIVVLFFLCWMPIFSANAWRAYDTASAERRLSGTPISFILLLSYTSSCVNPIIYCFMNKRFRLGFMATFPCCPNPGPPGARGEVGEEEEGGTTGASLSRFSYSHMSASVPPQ

| SMILES | EC50 [1] | EC50 [2] |
| --- | --- | --- |
| CNC[C@H](O)c1ccc(O)c(O)c1 [(−)-Epinephrine, reference compound] | 0.00324 µM |  |
| CSCC[C@H](NC(=O)[C@@H](N)Cc1c[nH]c2ccccc12)C(=O)N[C@@H](CC(=O)O)C(=O)N[C@@H](Cc1ccccc1)C(N)=O [CCK-4, reference compound] |  | 0.0714 µM |
